Measured values published in patent EP2138169B1, “Transdermal delivery system of hormones without penetration enhancers” (Bayer Intellectual Property GmbH, priority 2003, dated 2005).

Parameters: species or system women
Details: female, human, in vivo
Description: The effect on ovulation inhibition, serum drug concentrations and safety of a patch of the invention was investigated in a selected population of women. The study design was based on the requirements of the EMEA quideline for clinical studies with contraceptive steroids (Commitee for Proprietary Medicinal Products, CPMP/EWP 519/98).
Arcare MA-24A® is a polyisobutylene based adhesive from Adhesive Research.
The treatment phase includes a period of two menstrual cycles. The first treatment in the first cycle began one day after the volunteers started menstruating in this cycle by application of a patch. A total of three test patches were applied in intervals of 7 days between, such as application at days 1, 8 and 15 of the first cycle - each at different application sites- during each treatment cycle. Each patch was worn for 7 days, then replaced with a new patch to complete a total of 21 days of continuous use. This was followed by a 7-day treatment-free interval before the next treatment period started with a total of three patches applied, each applied with an interval of 7 days. If the patches were lost or became more than 40% detached, a new patch was applied.
The AUC was calculated according to the linear trapezoidal rule. […]
After incubation and centrifugation, the resultant precipitate was redissolved with NaOH. The assay has a lower limit of quantification of approx. 250 pg/ml.

Tmax (mean) of gestodene (GSD): 144 h
SMILES: C#C[C@]1(O)C=C[C@H]2[C@@H]3CCC4=CC(=O)CC[C@@H]4[C@H]3CC[C@@]21CC [Gestodene, 13β-Ethyl-17α-ethynyl-17β-hydroxy-4,15-gonadien-3-one]
